For this experiment, the species on record is Cavia porcellus. Put plainly: Selectivity as ratio of IC50 for mu and kappa opioid receptors.

The record followed here is ChEMBL document CHEMBL1128535, “Synthesis using a Fmoc-based strategy and biological activities of some reduced peptide bond pseudopeptide analogues of dynorphin A1” (J Med Chem, 1995).

Structures are written as SMILES.

For the compound `CC[C@H](C)[C@H](NC(=O)[C@H](CCCN=C(N)N)NC(=O)[C@H](CCCN=C(N)N)NC[C@H](CCCCN)NC(=O)[C@H](Cc1ccccc1)NC(=O)CNC(=O)CNC(=O)[C@@H](N)Cc1ccc(O)cc1)C(=O)N[C@@H](CCCN=C(N)N)C(=O)N1CCC[C@H]1C(=O)N[C@@H](CCCCN)C(N)=O`, the Selectivity came out at 10.
